# Measurements from PubChem BioAssay AID1511 (Johns Hopkins Ion Channel Center, 2009).
# Chains of the proteins cited; added tags and fusions are not shown.
# UniProt Q12809, whole entry: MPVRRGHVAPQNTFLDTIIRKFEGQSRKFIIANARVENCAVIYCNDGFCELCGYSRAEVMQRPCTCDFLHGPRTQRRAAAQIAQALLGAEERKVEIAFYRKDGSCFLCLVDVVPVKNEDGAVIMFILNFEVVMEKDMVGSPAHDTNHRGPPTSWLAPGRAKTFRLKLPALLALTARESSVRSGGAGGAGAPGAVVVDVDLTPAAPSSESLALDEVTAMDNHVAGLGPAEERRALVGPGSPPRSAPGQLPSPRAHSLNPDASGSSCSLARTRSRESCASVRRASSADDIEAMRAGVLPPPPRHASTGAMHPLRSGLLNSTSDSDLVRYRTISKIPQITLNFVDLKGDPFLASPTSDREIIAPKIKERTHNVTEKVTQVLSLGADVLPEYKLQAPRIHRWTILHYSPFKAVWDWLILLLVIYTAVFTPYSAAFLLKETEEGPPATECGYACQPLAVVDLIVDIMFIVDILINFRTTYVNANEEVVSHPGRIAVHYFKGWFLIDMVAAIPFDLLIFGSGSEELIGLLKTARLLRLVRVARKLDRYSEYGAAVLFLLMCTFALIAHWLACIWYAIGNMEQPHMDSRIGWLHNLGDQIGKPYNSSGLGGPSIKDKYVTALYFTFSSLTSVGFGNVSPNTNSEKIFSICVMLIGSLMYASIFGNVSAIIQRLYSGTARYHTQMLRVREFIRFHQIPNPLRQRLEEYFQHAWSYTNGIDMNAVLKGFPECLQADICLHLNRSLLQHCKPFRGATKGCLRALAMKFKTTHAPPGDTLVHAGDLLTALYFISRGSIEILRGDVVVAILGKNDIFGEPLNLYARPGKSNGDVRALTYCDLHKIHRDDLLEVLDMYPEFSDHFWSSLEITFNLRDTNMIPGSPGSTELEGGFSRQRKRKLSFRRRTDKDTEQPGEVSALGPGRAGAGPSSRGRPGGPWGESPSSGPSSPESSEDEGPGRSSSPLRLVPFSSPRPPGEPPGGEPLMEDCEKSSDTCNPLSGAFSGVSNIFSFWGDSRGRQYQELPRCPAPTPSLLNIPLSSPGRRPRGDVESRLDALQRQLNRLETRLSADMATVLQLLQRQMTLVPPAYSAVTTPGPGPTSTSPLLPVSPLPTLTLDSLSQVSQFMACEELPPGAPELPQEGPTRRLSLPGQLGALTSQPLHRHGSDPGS
# The list shows a part of the results, in another mix than the full data. Calls of active or inactive are those of the source.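 Rule for the calls: active = activation above the mean of controls blocked by dofetilide plus 5 SD; inactive = the rest.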
# Molecular target: Voltage-gated inwardly rectifying potassium channel KCNH2 (Homo sapiens) (UniProt Q12809)
# Test: PubChem AID 1511;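 note: thallium influx through hERG after potassium depolarization seen as dye fluorescence rise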
# Conditions: CHO-hERG, FluxOR thallium flux, dofetilide IC70 present; at 10 µM; hits give high values
row,Structure (SMILES),"activation (rescue from dofetilide block), less the hit threshold"
1,O=C(NCC1(N2CCCCC2)CCCCC1)c1cccc(C(F)(F)F)c1,inactive: -8.42%
2,CN1CCN(CCOC(=O)C(O)(c2ccccc2)c2ccccc2)CC1,inactive: -8.34%
3,COc1ccc(NC2CCN(C(=O)OC(C)(C)C)CC2)cc1,inactive: -2.76%
4,COc1cc(C(=O)NCC2(N3CCCCC3)CCCCC2)ccc1OC(F)F,inactive: -5.44%
5,O=C(NCC1(N2CCOCC2)CCCCC1)c1cc(=O)[nH]c2ccccc12,inactive: -8.25%
6,O=C(NCC1(N2CCCCC2)CCCCC1)c1ccc(OC(F)F)cc1,inactive: -8.85%
7,O=C(NCC1(N2CCCCC2)CCCCC1)c1cccc([N+](=O)[O-])c1,inactive: -19%
8,CCN1CCC(Nc2ccc(Cl)cc2)CC1,inactive: -6.93%
9,N#CC1(Nc2ccccc2)CCN(CCc2ccccc2)CC1,inactive: -3.57%
10,CN1CCC(Nc2cccc(F)c2)CC1,inactive: -3.84%
11,CCCOc1ccc(C(=O)NCC2(N(C)C)CCCCC2)cc1OC,inactive: -5.93%
12,COc1ccc(CN(CCCl)CCCl)cc1Cl,inactive: -9.95%
13,CN(C)c1cccc(C(=O)NCC2(N3CCCCC3)CCCCC2)c1,inactive: -8.43%
14,CC(C)c1ccc(NC2CCN(C(=O)OC(C)(C)C)CC2)cc1,inactive: -9.57%
15,COc1cc(OC)c(C(=O)NCC2(N(C)C)CCCCC2)cc1OC,inactive: -7.03%
16,O=C(NCC1(N2CCOCC2)CCCCC1)c1cc2ccccc2o1,inactive: -9.69%
17,O=C(NCC1(N2CCCCC2)CCCCC1)c1ccc(Cl)nc1,inactive: -10.8%
18,Cc1cc(C)cc(N(C(=O)c2ccccc2)C2CCN(C(=O)OC(C)(C)C)CC2)c1,inactive: -12.8%
19,CCOC(=O)N1CCC(Nc2ccc(OC)cc2)CC1,active: 4.85%
20,N#CC1(Nc2ccccc2)CCN(Cc2ccccc2)CC1,inactive: -3.63%

row,Structure (SMILES),"activation (rescue from dofetilide block), less the hit threshold"
1,O=C(OC1CN2CCC1CC2)C1c2ccccc2Oc2ccccc21 (centres undefined),inactive: -4.59%
2,O=C(NCC1(N2CCCCC2)CCCCC1)c1ccc(=O)[nH]c1,inactive: -13.1%
3,O=C(NCC1(N2CCCCC2)CCCCC1)c1cccs1,inactive: -7.07%
4,COc1ccc(C(=O)NCC2(N3CCCCC3)CCCCC2)cc1,inactive: -3.05%
5,CC(C)(C)OC(=O)N1CCC(N(C(=O)c2ccccc2)c2ccc(F)cc2)CC1,inactive: -10.9%
6,COc1ccc(C(=O)NCC2(N3CCCCC3)CCCCC2)c(OC)c1OC,inactive: -7.71%
7,CSc1ccccc1C(=O)NCC1(N2CCCCC2)CCCCC1,inactive: -5.3%
8,CCOC(=O)N1CCC(Nc2cccc(C)c2)CC1,inactive: -7.8%
9,COc1cc(C(=O)NCC2(N(C)C)CCCCC2)ccc1OC(F)F,inactive: -6.75%
10,Cc1ccc(OCC(C)C)c(CN(CCCl)CCCl)c1,inactive: -3.48%
11,CCOc1ccc(C)cc1CN(CCCl)CCCl,inactive: -8.15%
12,O=C(NCC1(N2CCCCC2)CCCCC1)c1ccc(F)cc1,inactive: -7.03%
13,COc1ccc(NC2CCN(CCc3ccccc3)CC2)c(OC)c1,inactive: -7.89%
14,CCOC(=O)N1CCC(Nc2ccc(F)cc2)CC1,inactive: -5.44%
15,CCN1CCC(Nc2cccc(F)c2)CC1,inactive: -5%
16,CN(C)c1ccc(C(=O)NCC2(N3CCCCC3)CCCCC2)cc1,inactive: -12.7%
17,COc1cc(OC)cc(C(=O)NCC2(N3CCCCC3)CCCCC2)c1,inactive: -7.23%
18,Cc1ccc(C(=O)NCC2(N3CCCCC3)CCCCC2)o1,inactive: -7.74%
19,Fc1ccccc1NC1CCN(Cc2ccccc2)CC1,inactive: -3.6%
20,CCC(CO)(C(=O)OC1CN2CCC1CC2)c1ccccc1 (centres undefined),inactive: 0.33%

row,Structure (SMILES),"activation (rescue from dofetilide block), less the hit threshold"
1,COc1cc(OC)cc(C(=O)NCC2(N3CCOCC3)CCCCC2)c1,inactive: -12.2%
2,COc1cccc(C(=O)N(c2cc(C)cc(C)c2)C2CCN(C(=O)OC(C)(C)C)CC2)c1,inactive: -2.91%
3,CCCOc1ccc(C)cc1CN(CCCl)CCCl,inactive: -12.8%
4,CN1CCC(Nc2ccc(Cl)cc2)CC1,inactive: -10.8%
5,CCOc1ncccc1C(=O)NCC1(N2CCOCC2)CCCCC1,inactive: -13.3%
6,CN1CCC(Nc2ccc(F)c(Cl)c2)CC1,inactive: 0.28%
7,CCCOc1ccc(C(=O)NCC2(N(C)C)CCCCC2)cc1,inactive: -10.9%
8,CC(C)(C)OC(=O)N1CCC(Nc2ccccc2)CC1,inactive: -18.4%
9,O=C(O)C1(Nc2ccccc2)CCN(Cc2ccccc2)CC1,inactive: -4.36%
10,N/C(=N\O)c1c(N)no[n+]1[O-],inactive: -11.5%
11,CCOC(=O)N1CCC(Nc2ccc(C)cc2)CC1,inactive: -1.45%
12,CCc1cc(C(=O)NCC2(N3CCCCC3)CCCCC2)sc1C,inactive: -10.4%
13,O=C(OC1CN2CCC1CC2)C1c2ccccc2C=Cc2ccccc21 (centres undefined),inactive: -6.03%
14,COc1ccc(C(=O)NCC2(N3CCOCC3)CCCCC2)cc1OC,inactive: -24%
15,c1ccc(CN2CCC(Nc3ccccc3)CC2)cc1,inactive: 0.58%
16,CCCN1CCC(Nc2cc(OC)cc(OC)c2)CC1,inactive: -6.5%
17,CN(C)C1(CNC(=O)c2cccc(C#N)c2)CCCCC1,inactive: -3.06%
18,CC(C)(C)OC(=O)N1CCC(N(C(=O)c2ccccc2)c2ccc(Cl)cc2)CC1,inactive: -11.3%
19,N#Cc1ccc(C(=O)NCC2(N3CCCCC3)CCCCC2)cc1,inactive: -3.92%
